Measurements as given in ChEMBL document CHEMBL3734689, “Enzyme kinetics and inhibition of histone acetyltransferase KAT8” (Eur J Med Chem, 2015).

Target: T1, Histone acetyltransferase KAT8 (Homo sapiens, UniProt Q9H7Z6)
T1 sequence (Q9H7Z6 whole entry): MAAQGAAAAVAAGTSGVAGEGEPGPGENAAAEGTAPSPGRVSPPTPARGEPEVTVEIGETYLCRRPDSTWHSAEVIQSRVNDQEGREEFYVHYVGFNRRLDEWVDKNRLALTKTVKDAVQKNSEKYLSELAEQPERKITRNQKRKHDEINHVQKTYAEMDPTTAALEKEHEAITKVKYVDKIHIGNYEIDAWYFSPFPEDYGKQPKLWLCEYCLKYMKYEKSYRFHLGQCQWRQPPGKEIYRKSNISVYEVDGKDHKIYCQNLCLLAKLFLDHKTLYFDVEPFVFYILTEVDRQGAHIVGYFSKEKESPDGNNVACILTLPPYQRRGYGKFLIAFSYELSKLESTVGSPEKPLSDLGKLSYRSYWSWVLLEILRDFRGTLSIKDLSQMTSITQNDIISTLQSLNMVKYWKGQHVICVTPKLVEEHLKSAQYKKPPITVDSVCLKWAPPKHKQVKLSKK
Experiment: Inhibition of recombinant N-terminal His6-tagged KAT8 (unknown origin) expressed in Escherichia Coli BL21 DE3 cells assessed as reduction of Co A level using histone H4 substrate after 15 mins by CPM fluorescence assay

CCCCCCCCCCCCCCCc1cccc(O)c1C(=O)O [ANACARDIC ACID]
Ki: 64 µM
